Some of the results follow.

Here are results for 91 compounds from published antibiotic growth screens (doi:10.1038/s41589-023-01349-8).

This test concerns A. baumannii ATCC 17978. In words: relative growth (fraction of control); higher = less inhibition. Conditions: 50 µM.
Compound `Cc1ccc(OCCn2c(CC(C)(C)C)nc3ccccc32)cc1` yielded a relative growth of 0.768.

`O=C(C[C@@H]1CC[C@@H]2[C@H](COC[C@H](O)CN2C(=O)Nc2cc(Cl)cc(Cl)c2)O1)N1CCOCC1` showed a relative growth of 0.942.

As to `CCN1C(=O)[C@H]2[C@@H](O)CS[C@H]2C1=O`, the relative growth was 0.93.

In the case of `COc1cccc(S(=O)(=O)Nc2ccc3c(c2)[C@H]2C[C@H](CC(=O)NCc4ccccc4F)O[C@H](CO)[C@H]2O3)c1`, the relative growth is 0.753.

Consider `O=C(CN1CCOCC1)NCC[C@H]1CC[C@@H](NC(=O)Nc2ccccc2)[C@@H](CO)O1`, for which the relative growth was found to be 1.2.

`CC1=NCC[C@@H](C(=O)O)N1` displayed a relative growth of 1.02.

The compound `O=C(N[C@H]1CC[C@@H](CC(=O)N2CCOCC2)O[C@H]1CO)c1ccc2c(c1)OCO2` returned a relative growth of 0.952.

Compound `COCC#Cc1ccc2c(c1)O[C@@H](CN(C)Cc1ccccc1F)[C@H](C)CN([C@@H](C)CO)S2(=O)=O` had a relative growth of 1.21.

As for `O=C(CN1CCOCC1)N[C@H]1CC[C@@H](CCNC(=O)Nc2cc(F)ccc2F)O[C@@H]1CO`, the relative growth amounted to 1.04.

For the compound `C=CCOc1ccc(CNn2nnnc2N)cc1`, the relative growth came out at 0.965.

Compound `O=C(C[C@@H]1C=C[C@@H](NC(=O)CN2CCOCC2)[C@H](CO)O1)NC1CCC1` displayed a relative growth of 0.962.

Take `O.O=C([O-])CC(O)(CC(=O)[O-])C(=O)[O-].[Li+].[Li+].[Li+]`: the relative growth was 0.939.

As to `C=C(CO)C(=O)O[C@H]1C[C@@]2(C)OC(=O)/C(=C/C)[C@]2(O)CC[C@@]2(C)CC(=O)[C@]1(C(=C)C(=O)OC)O2`, the relative growth was 1.1.

`CN(C)C(=O)N1CCNCC1`: the relative growth came out at 1.06.

`Clc1cc(Cl)cc(Oc2nc(-c3ccccc3)ns2)c1` displayed a relative growth of 1.18.

`CCCC[C@@H](CC)COC(=O)c1ccccc1O`: the relative growth stood at 0.927.

`O=C1c2c(O)cccc2Cc2cccc(O)c21` gave a relative growth of 0.877.

Compound `CNc1nc(OC)cc(OC)n1` yielded a relative growth of 1.18.

In turn, `COc1cccc2c1C(=O)c1c(O)c3c(c(O)c1C2=O)C[C@@](O)(C(C)=O)C[C@@H]3O[C@H]1C[C@H](N)[C@H](O)[C@H](C)O1.Cl` returned a relative growth of 0.562.

With `C[C@@H]1O[C@@H](O[C@@H]2[C@@H](O)[C@H](OCCc3ccc(O)c(O)c3)O[C@H](COC(=O)/C=C/c3ccc(O)c(O)c3)[C@H]2O)[C@H](O)[C@H](O)[C@H]1O`, the relative growth was 1.09.

Regarding `O/N=C/c1ccccc1C(F)(F)F`, the relative growth was determined as 0.939.

The compound `C[C@@H]1CN([C@@H](C)CO)S(=O)(=O)c2ccc(C#CCN(C)C)cc2O[C@H]1CN(C)Cc1ccc(F)cc1` registered a relative growth of 0.567.

`CO/N=C(/C(=O)NC1C(=O)N2C(C(=O)O)=C(C[N+]3(C)CCCC3)CSC12)c1csc(N)n1.[Cl-]` (stereo unspecified) displayed a relative growth of 0.152.

Take `N#Cc1ncoc1N1CCC(C(N)=O)CC1`: the relative growth is 1.02.

The compound `CCCCCCCCCCCCCCCC(=O)OCC(O)CO` (stereo unspecified) registered a relative growth of 1.17.

Compound `O=C(CN1CCOCC1)NCC[C@H]1CC[C@H](NC(=O)Cc2ccccn2)[C@H](CO)O1` registered a relative growth of 1.07.

For the compound `CCC(=O)N(C)C[C@H]1Oc2ncc(C#C[C@@H](C)O)cc2C(=O)N([C@H](C)CO)C[C@@H]1C`, the relative growth was 0.979.

In turn, `O=C(C[C@@H]1CC[C@H]2[C@@H](COC[C@@H](O)CN2C(=O)Nc2ccc3c(c2)OCO3)O1)N1CCN(c2ccccc2)CC1` showed a relative growth of 1.01.

In turn, `OC(Cn1cncn1)(Cn1cncn1)c1ccc(F)cc1F` came in with a relative growth of 1.18.

`CC1(C)C(=O)C=C[C@@]2(C)C1C=C[C@]1(C)C2CC[C@@]2(C)[C@H](c3ccoc3)OC(=O)[C@H]3O[C@]321` (stereo partly specified) returned a relative growth of 1.28.

`C[C@@H]1CN([C@@H](C)CO)S(=O)(=O)c2ccc(-c3cncnc3)cc2O[C@H]1CN(C)C(=O)c1cccc(F)c1` displayed a relative growth of 1.

`CCCCCCCCCCCCCCCC[N+](C)(C)Cc1ccccc1.[Cl-]` showed a relative growth of 0.311.

As to `CN(C)S(=O)(=O)Nc1ccc(C(=O)O)cc1`, the relative growth is 1.08.

In turn, `CO[C@H]1O[C@H](CO)[C@@H](OC(=O)c2ccc(Br)cc2)[C@@H]2OC(=O)[C@H](Cc3ccccc3)C/C=C/C[C@@H](Cc3ccccc3)C(=O)O[C@@H]12` returned a relative growth of 1.17.

Compound `C[C@H]1CN([C@@H](C)CO)S(=O)(=O)c2ccc(C#CC(C)(C)O)cc2O[C@H]1CN(C)Cc1ccccc1` yielded a relative growth of 0.754.

`O/N=C/c1ccc2ccccc2c1` had a relative growth of 0.812.

With `COc1cccc(S(=O)(=O)N(C)C[C@@H]2Oc3cc(C#CCC(C)C)ccc3S(=O)(=O)N([C@H](C)CO)C[C@H]2C)c1`, the relative growth turned out to be 1.19.

`NCc1ccccc1CC(=O)NC1C(=O)N2C(C(=O)O)=C(CSc3nnnn3CC(=O)O)CSC12` (stereo unspecified) came in with a relative growth of 1.24.

Compound `CC(=O)[C@@]1(O)CC[C@H]2[C@@H]3C=C(Cl)C4=CC(=O)[C@@H]5C[C@@H]5[C@]4(C)[C@H]3CC[C@@]21C` had a relative growth of 1.05.

As to `C[C@H](O)C#Cc1ccc2c(c1)O[C@@H](CN(C)C)[C@@H](C)CN([C@H](C)CO)S2(=O)=O`, the relative growth turned out to be 1.05.

`N[C@H]1CCc2nc3ccccc3c(=O)n2[C@@H]1c1ccsc1`: the relative growth turned out to be 1.07.

On to `O=C(NCCO)c1cc2ccccc2c(=O)s1`, for which the relative growth came to 0.862.

Compound `CC(C)(C)OC(=O)Cn1ccc(=O)[nH]c1=O` returned a relative growth of 1.05.

As for `CO[C@H]1CN(C)C(=O)c2cc(NS(=O)(=O)c3cn(C)cn3)ccc2OC[C@@H](C)N(Cc2cccc(F)c2)C[C@@H]1C`, the relative growth turned out to be 0.831.

`COc1c(-c2coc3cc4c(cc3c2=O)CC(O)C(C)(C)O4)ccc2c1C=CC(C)(C)O2` (stereo unspecified) had a relative growth of 0.946.

Compound `CS(=O)(=O)NCc1nnnn1-c1ccc(F)c(F)c1` gave a relative growth of 1.02.

`COC[C@@H](C)NC(=O)C(=O)NC1CC1` had a relative growth of 1.02.

Consider `CC1C(=O)O[C@H]2C1CCC1(C)CCC(=O)[C@@H](C)[C@H]21` (stereo partly specified), for which the relative growth came to 0.946.

For the compound `Cl.c1ccc2c(CC3=NCCN3)cccc2c1`, the relative growth came to 0.941.

In turn, `Clc1cccc(Cl)c1CSc1cccs1` registered a relative growth of 1.06.

`O=S1(=O)N[C@H](c2ccccc2)CO1`: the relative growth was 1.04.

`CNC(=O)Cn1c(=O)c2c(N3CCN(C(=O)C4CC4)CC3)ccnc2n(C)c1=O`: the relative growth is 1.12.

Compound `CO[C@@H](CN(C)C(=O)c1ccccc1F)[C@@H](C)CN([C@@H](C)CO)S(=O)(=O)c1ccc(Cl)cc1` showed a relative growth of 0.853.

`Cc1cc(C(C)(C)CC(C)(C)C)ccc1OCCOCC[N+](C)(C)Cc1ccccc1.[Cl-]` showed a relative growth of 0.152.

On to `CN(C)CC(=O)N[C@@H]1CC[C@H](CCNC(=O)C2CC2)O[C@H]1CO`, for which the relative growth stood at 1.12.

`O=C(C[n+]1ccc(/C=N/O)cc1)N1CCCCC1` returned a relative growth of 1.04.

`O=C(O)c1cc2ncc(CCO)cn2n1`: the relative growth stood at 0.984.

In turn, `COc1ccccc1CNC(=O)C[C@H]1CC[C@H]2[C@@H](COC[C@H](O)CN2C(=O)Nc2ccc(Cl)cc2)O1` gave a relative growth of 1.01.

As to `CC(C)(C(=O)O)c1ccc(C(O)CCCN2CCC(C(O)(c3ccccc3)c3ccccc3)CC2)cc1.Cl` (stereo unspecified), the relative growth is 1.06.

Compound `Cc1cn[nH]c1` registered a relative growth of 0.962.

Take `CN(Cc1cc(Br)cc(Br)c1N)C1CCCCC1.Cl`: the relative growth was 1.13.

On to `CCCNC(=O)N(C)C[C@H]1Oc2cc(C#Cc3cccc(F)c3)ccc2S(=O)(=O)N([C@@H](C)CO)C[C@@H]1C`, for which the relative growth was 0.912.

`COC(=O)[C@@H]1C[C@H](C#N)N[C@@H]1c1ccco1` showed a relative growth of 0.999.

Compound `COC(=O)Nc1nc2cc(C(=O)c3cccs3)ccc2[nH]1` came in with a relative growth of 0.971.

Turning to `COCC#Cc1ccc2c(c1)O[C@H](CN(C)S(=O)(=O)c1ccc(F)cc1)[C@@H](C)CN([C@@H](C)CO)S2(=O)=O`, the relative growth turned out to be 0.849.

`FC(F)(F)C(Cl)Br` (stereo unspecified) gave a relative growth of 0.956.

`O=C(O)CN1C(=O)c2cccc3cccc(c23)C1=O` displayed a relative growth of 1.04.

With `COc1ccc(NC(=O)N[C@H]2CC[C@H](CCNC(=O)CN3CCOCC3)O[C@H]2CO)cc1`, the relative growth worked out at 1.03.

Regarding `CCC(C)(C)c1ccc(CC(C)CN2C[C@@H](C)O[C@@H](C)C2)cc1.Cl` (stereo partly specified), the relative growth was 0.928.

In turn, `C[C@H](CO)N1C[C@H](C)[C@H](CN(C)C(=O)CN(C)C)Oc2cc(-c3cncnc3)ccc2S1(=O)=O` yielded a relative growth of 0.982.

As to `CC(O)CN(CCN(CC(C)O)CC(C)O)CC(C)O` (stereo unspecified), the relative growth came to 0.861.

`CN1CCC(OC(c2ccccc2)c2ccccc2)CC1.Cl` had a relative growth of 0.945.

Regarding `O=C(N/N=C/[C@H](O)[C@@H](O)[C@H](O)[C@H](O)CO)c1ccccn1`, the relative growth was 1.06.

With `O=C(O)CCCCCCCC(=O)O`, the relative growth is 1.17.

The compound `COC(=O)Cn1c(=O)c2c(OC)c(C)cnc2n(C)c1=O` returned a relative growth of 0.99.

For the compound `CCCCCCCCCCCCCCCC(=O)OC/C=C(C)/C=C/C=C(C)/C=C/C1=C(C)CCCC1(C)C`, the relative growth is 0.989.

The compound `C[C@H]1CC2C3CCC4=CC(=O)C=C[C@]4(C)[C@@]3(F)[C@@H](O)C[C@]2(C)[C@@]1(O)C(=O)COP(=O)([O-])[O-].[Na+].[Na+]` (stereo partly specified) came in with a relative growth of 0.936.

With `CCOc1ccc2c(c1)-c1c(ssc1=S)C(C)(C)N2C`, the relative growth is 1.1.

`NCCCCCCNC(=O)[C@@H]1C[C@@H]2C(=O)N[C@@H](CCCCN)C(=O)N2[C@@H]1c1cccc(OCCO)c1` had a relative growth of 1.01.

`CN1CCN(C(=O)C[C@@H]2CC[C@@H]3[C@H](COC[C@@H](O)CN3C(=O)Nc3ccc4c(c3)OCO4)O2)CC1` gave a relative growth of 0.951.

For `CCCC(=O)Nc1ccc2c(c1)C(=O)N(C)[C@@H]1CC[C@@H](CC(=O)NCCN3CCCCC3)O[C@H]1CO2`, the relative growth came to 1.

Compound `Cc1c2occ(C(C)(C)C)c2cc2c3c(c(=O)oc12)CCCC3` displayed a relative growth of 1.01.

`O=C(C[C@@H]1CC[C@@H]2[C@H](COC[C@H](O)CN2S(=O)(=O)c2ccc(F)cc2)O1)N[C@@H]1CCN(Cc2ccccc2)C1` returned a relative growth of 1.05.

As to `O=C(O)CNS(=O)(=O)c1ccccc1`, the relative growth came out at 0.934.

The compound `NS(=O)(=O)c1cc(C2(O)NC(=O)c3ccccc32)ccc1Cl` (stereo unspecified) yielded a relative growth of 1.22.

As to `OCc1cc(O)c2c(O)c3c(O)cccc3c(O[C@@H]3O[C@H](CO)[C@@H](O)[C@H](O)[C@H]3O)c2c1`, the relative growth turned out to be 0.996.

In turn, `CC(C)NC(=O)N[C@@H]1C=C[C@@H](CC(=O)NCCCN(C)C)O[C@H]1CO` showed a relative growth of 1.04.

`N[C@@H]1CC[C@@H](CCn2cc(C3(O)CCCC3)nn2)O[C@H]1CO` displayed a relative growth of 1.01.

In the case of `CCCc1cc(C(N)=S)ccn1`, the relative growth came to 0.952.

With `Cn1cnc(CCNC(=O)C[C@@H]2CC[C@H]3[C@@H](COC[C@H](O)CN3C(=O)C3CC3)O2)c1`, the relative growth worked out at 1.03.

As for `CCNC(=O)C[C@H]1CC[C@@H](NC(=O)C2CCOCC2)[C@@H](CO)O1`, the relative growth was 1.08.
